One compound from ChEMBL document CHEMBL1130094, “Structure-activity relationships for a novel series of pyrido[2,3-d]pyrimidine tyrosine kinase inhibitors” (J Med Chem, 1997) can be followed below.

The chains behind the UniProt entries cited, without tags or fusion partners. Where a name states a change or a piece, a line headed by the entry shows the natural chain unless it says otherwise.
UniProt P12931: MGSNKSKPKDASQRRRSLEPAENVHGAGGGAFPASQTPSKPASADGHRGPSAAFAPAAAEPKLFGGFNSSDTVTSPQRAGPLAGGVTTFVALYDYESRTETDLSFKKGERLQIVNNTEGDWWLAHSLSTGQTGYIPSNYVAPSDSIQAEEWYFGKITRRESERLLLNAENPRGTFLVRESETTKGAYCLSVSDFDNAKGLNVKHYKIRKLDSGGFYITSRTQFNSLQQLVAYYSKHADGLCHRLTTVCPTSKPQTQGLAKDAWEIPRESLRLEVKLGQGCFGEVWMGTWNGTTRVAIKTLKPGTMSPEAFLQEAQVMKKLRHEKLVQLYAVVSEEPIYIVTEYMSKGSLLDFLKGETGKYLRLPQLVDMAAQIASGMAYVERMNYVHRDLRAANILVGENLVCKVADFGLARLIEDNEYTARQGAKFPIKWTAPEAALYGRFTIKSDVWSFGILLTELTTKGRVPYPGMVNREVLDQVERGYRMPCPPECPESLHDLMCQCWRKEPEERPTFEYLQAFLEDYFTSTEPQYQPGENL

Each structure is given as a SMILES string.

In the test the target is Proto-oncogene tyrosine-protein kinase Src (Homo sapiens, UniProt P12931). Nature of the test: Inhibition of C-src tyrosine kinase.

`CN1CCN(CCCNc2ncc3cc(-c4c(Cl)cccc4Cl)c(NC(=O)NC(C)(C)C)nc3n2)CC1`: the IC50 worked out at 31 nM.

The IC50 is the concentration that inhibits the measured activity by half. A higher IC50 goes with weaker potency.
